# Measured affinities in a library of Ab-14 heavy chain variants

From the AlphaSeq antibody data of Engelhart et al. 2022 (doi:10.1038/s41597-022-01779-4), copy in the FLAb collection.

The target is the same throughout: PDVDLGDISGINAS, from the HR2 region of SARS-CoV-2 spike.

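AAYL49 was designed without a model: most single CDR substitutions and a random sample of double and triple ones. Affinity was read by AlphaSeq, a pooled yeast mating assay with surface-displayed partners. Mating (16 h, 30 °C) was followed by selection of diploids and sequencing of their barcodes. A regression on co-assayed BCL2-family reference pairs converts the normalised counts of each replicate to an apparent Kd. The assay was run in three technical replicates.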

The variants keep the light chain, the linker and the frameworks of Ab-14 (scFv order VH, a 15-residue (Gly4Ser)3 linker, VL).
VH: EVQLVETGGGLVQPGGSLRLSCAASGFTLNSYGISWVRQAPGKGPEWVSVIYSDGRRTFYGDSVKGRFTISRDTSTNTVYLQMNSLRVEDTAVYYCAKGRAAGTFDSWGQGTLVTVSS
VL: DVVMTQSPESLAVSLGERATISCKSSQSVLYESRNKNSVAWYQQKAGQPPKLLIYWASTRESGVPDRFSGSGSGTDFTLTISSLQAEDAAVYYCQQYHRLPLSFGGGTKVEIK

Substitutions are numbered in sequence along the VH above, starting at 1 (not Kabat). All variants listed here change F59 of the VH, counted from its first residue. The read-out is the apparent dissociation constant on a log10 scale (nM): the lower, the stronger. Averages over replicates are reported, and they cover detected replicates only. A pair that was not seen in any replicate is written "nd"; this usually means weak binding, but a binder can also be missed. Nonspecific signal, from three strains lacking the peptide, appeared in 15% of pairings of library AAYL49, centred on 4.06 (5% of these signals below 2.83); values are not corrected for it. For reference, the parent read 0.65 as the reference entry and 4.11 (one replicate of three) as a member of this library.

For F59P/D62I/T104A, the assay gave nd (0 of 3 replicates).
For R56Q/F59V/K65R, the assay gave 1.24 (3 of 3 replicates).
For F59A/G99D/A102I, the assay gave 0.87 (3 of 3 replicates).
For Y32I/I51Y/F59S, the assay gave 6.29 (1 of 3 replicates).
For F59L/G99L/S107G, the assay gave nd (0 of 3 replicates).
For G26Q/T58N/F59N, the assay gave nd (0 of 3 replicates).
For D54H/F59C/F105E, the assay gave nd (0 of 3 replicates).
For F59A/G61H/T104G, the assay gave 3.34 (2 of 3 replicates).
For V50A/F59M/K65H, the assay gave 3.81 (2 of 3 replicates).
For F59T/S63N/R100G, the assay gave nd (0 of 3 replicates).
For T28L/F59S/G99H, the assay gave 4.94 (1 of 3 replicates).
For F59A/A102V, the assay gave nd (0 of 3 replicates).
For N30P/G55R/F59A, the assay gave nd (0 of 3 replicates).
For R57P/F59C/F105V, the assay gave nd (0 of 3 replicates).
For R57S/F59A/R100I, the assay gave 1.92 (3 of 3 replicates).
For G26I/F59M/G103Y, the assay gave nd (0 of 3 replicates).
For Y52A/F59G/G61R, the assay gave 1.97 (3 of 3 replicates).
For F59G, the assay gave 1.70 (3 of 3 replicates).
For V50G/T58A/F59S, the assay gave 3.22 (1 of 3 replicates).
For F59N/Y60E/S63T, the assay gave nd (0 of 3 replicates).
For F27N/T58W/F59C, the assay gave 4.75 (2 of 3 replicates).
For S35T/F59A/A101K, the assay gave 3.62 (2 of 3 replicates).
For F59D/S63K/A101P, the assay gave 5.23 (2 of 3 replicates).
For R56A/F59V, the assay gave 2.13 (3 of 3 replicates).
For N30C/F59K/G103N, the assay gave 4.55 (2 of 3 replicates).
For F59W/T104V, the assay gave 4.25 (1 of 3 replicates).
For I34S/F59R/G61V, the assay gave nd (0 of 3 replicates).
For F59I/D62L/R100E, the assay gave nd (0 of 3 replicates).
For S31A/F59C, the assay gave 2.05 (3 of 3 replicates).
For D54F/F59Y/A102Y, the assay gave nd (0 of 3 replicates).
For F59R/R100G/F105Q, the assay gave 5.42 (1 of 3 replicates).
For F59S, the assay gave 0.64 (3 of 3 replicates).
For S31G/G33V/F59P, the assay gave nd (0 of 3 replicates).
For F27H/F59M/G103T, the assay gave 4.43 (1 of 3 replicates).
For Y52V/F59A, the assay gave 5.28 (1 of 3 replicates).
For Y52W/T58M/F59W, the assay gave nd (0 of 3 replicates).
For Y32C/F59A/D62L, the assay gave 2.75 (3 of 3 replicates).
For F59S/G61R/A101P, the assay gave 5.08 (1 of 3 replicates).
For F59N, the assay gave 1.64 (3 of 3 replicates).
For F59Y/K65T/D106C, the assay gave 2.27 (3 of 3 replicates).
For L29P/F59Y/S63P, the assay gave nd (0 of 3 replicates).
For F59Q/G99N/A101D, the assay gave nd (0 of 3 replicates).
For Y52W/F59I, the assay gave 4.85 (1 of 3 replicates).
For F59C/Y60N, the assay gave nd (0 of 3 replicates).
For F59M/D106A, the assay gave 3.96 (1 of 3 replicates).
For D54R/F59N/A102N, the assay gave nd (0 of 3 replicates).
For F27L/T58C/F59P, the assay gave nd (0 of 3 replicates).
For S53H/F59A/D106Q, the assay gave 2.59 (3 of 3 replicates).
For N30I/G33V/F59W, the assay gave nd (0 of 3 replicates).
For T28V/S53Y/F59I, the assay gave 3.47 (3 of 3 replicates).
For F27I/G55V/F59W, the assay gave 3.88 (2 of 3 replicates).